Data as given in article PMC7460603 (International Journal of Molecular Sciences, 2020).

Test: 1H NMR stability in aqueous media
Method: All assays were carried out immediately after the solution preparation.

[(η^6-p-Cymene)Ru(1-hydroxyquinoline-2-(1H)-thionato)Cl] [Compound 1g]
stability under enzymatic assay conditions (1H NMR) (6.25% EtOH-d6/D2O, 80.2 mM K2HPO4 and 19.8 mM KH2PO4, immediately and after one hour): remain stable | stability in D2O containing 140 mM NaCl (1H NMR) (after one day): negligible changes | stability in D2O (1H NMR) (immediately and after three days): remain the main present species
